# Literature values, collected in patent publication US9782454B2 (LONGEVITY BIOTECH, INC., priority 2010, dated 2017).
# Conditions: in vivo; cited from earlier work
smiles,measurement,value
CC[C@H](C)[C@H](NC(=O)[C@H](CO)NC(=O)[C@H](CC(N)=O)NC(=O)[C@H](CC(C)C)NC(=O)[C@H](Cc1ccc(O)cc1)NC(=O)[C@H](CCCCN)NC(=O)[C@H](CCCCN)NC(=O)[C@@H](NC(=O)[C@H](C)NC(=O)[C@H](CCSC)NC(=O)[C@H](CCC(N)=O)NC(=O)[C@H](CCCCN)NC(=O)[C@H](CCCN=C(N)N)NC(=O)[C@H](CC(C)C)NC(=O)[C@H](CCCN=C(N)N)NC(=O)[C@@H](NC(=O)[C@H](Cc1ccc(O)cc1)NC(=O)[C@H](CC(N)=O)NC(=O)[C@H](CC(=O)O)NC(=O)[C@@H](NC(=O)[C@H](Cc1ccccc1)NC(=O)[C@@H](NC(=O)[C@H](C)NC(=O)[C@H](CC(=O)O)NC(=O)[C@H](CO)NC(=O)[C@@H](N)Cc1c[nH]cn1)C(C)C)[C@@H](C)O)[C@@H](C)O)C(C)C)C(=O)N[C@@H](CC(C)C)C(=O)N[C@@H](CC(N)=O)C(N)=O [VIP],half-life in the blood stream,about two
